These results are taken from patent US20090123488A1, “Compositions and methods for the treatment and prophylaxis of Alzheimer's disease” (priority 2006, published 2009).

This data set is described as follows: Aqueous solubility and appearance of immunogen solutions. The data set is classed as physicochemical. The note with it: for Comments (solubility): pH 5. Here is the method:
The immunogens of Example 1 (with either Pam3CSS- or Pam2CSS-lipopeptide caps) were poorly soluble in aqueous solvents. They were formulated for administration by dissolving them in dimethylsulphoxide (DMSO) and diluting with phosphate buffered saline to 5-10% DMSO. This yielded an opalescent somewhat turbid solution that was injected into animals.

In the case of `CCCCCCCCCCCCCCCC(=O)OCC(CSCC(N)C(=O)N[C@@H](CO)C(=O)N[C@@H](CCCCN)C(=O)N[C@@H](CCCCN)C(=O)N[C@@H](CCCCN)C(=O)N[C@@H](CCCCN)C(=O)N[C@@H](CO)C(=O)N[C@@H](CCC(N)=O)C(=O)N[C@@H](Cc1ccc(O)cc1)C(=O)N[C@H](C(=O)N[C@@H](CCCCN)C(=O)N[C@@H](C)C(=O)N[C@@H](CC(N)=O)C(=O)N[C@@H](CO)C(=O)N[C@@H](CCCCN)C(=O)N[C@@H](Cc1ccccc1)C(=O)N[C@H](C(=O)NCC(=O)N[C@H](C(=O)N[C@H](C(=O)N[C@@H](CCC(=O)O)C(=O)N[C@@H](CC(C)C)C(=O)N[C@@H](CC(=O)O)C(=O)N[C@@H](C)C(=O)N[C@@H](CCC(=O)O)C(=O)N[C@@H](Cc1ccccc1)C(=O)N[C@@H](CCCNC(=N)N)C(=O)N[C@@H](Cc1c[nH]cn1)C(=O)N[C@@H](CC(=O)O)C(=O)N[C@@H](CO)C(=O)NCC(=O)N[C@@H](Cc1ccc(O)cc1)C(=O)N[C@@H](CCC(=O)O)C(=O)N[C@H](C(=O)N[C@@H](Cc1c[nH]cn1)C(=O)N[C@@H](Cc1c[nH]cn1)C(=O)N[C@@H](CCC(N)=O)C(N)=O)C(C)C)[C@@H](C)O)[C@@H](C)CC)[C@@H](C)CC)[C@@H](C)CC)OC(=O)CCCCCCCCCCCCCCC` (stereo partly drawn) [SEQ ID NO: 30, Pam2C-SKKKKSQYIKANSKFIGITELDAEFRHDSGYEVHHQ-amide], the “effect of addition of mannitol (isotonicity) on solubility in water for injection” value is “did not impair solubility” and the “solubility in aqueous solvents” value is “much improved solubility”. The “Comments (solubility)” value (Solution 2 mg/mL WFI) was “Soluble with 37 °C”. The “Comments (solubility)” value (Solution 2 mg/mL-30 mg/mL mannitol) was “Soluble with 37 °C”. Further, the “Comments (solubility)” value (Solution 10 mg/mL WFI) was “Soluble with 37 °C”. Besides, where the note is “Solution 10 mg/mL-30 mg/mL mannitol”, the “Comments (solubility)” value was “Soluble with 37 °C”. Further, the “Comments (solubility)” value (Solution 30 mg/mL WFI) was “Soluble with 37 °C”. The “Comments (solubility)” value (Solution 30 mg/mL-30 mg/mL mannitol) was “Soluble with 37 °C”.
